From PubChem
Shown are actives, neighbours in structure and some others; about 2.8% of the full set was active somewhere.
UUG fidelity – yeast start codon fidelity modulation | S. cerevisiae UUG-firefly luciferase reporter, luminescence/redox ratio | activity score, % at 18.7 µM | 0.13% of 350,000 active | AID 602363;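 active means replicate mean at a twofold rise or more, about +100% in these data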;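 further: firefly luciferase made from a UUG start codon reports start codon fidelity; reporter light over untreated wells divided by growth signal over untreated wells; some hits fall short of that in this replicate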
E-sel inducer – E-selectin induction on HUVECs; P16581; HUVEC E-selectin immunofluorescence imaging; normalized: neutral wells 0, TNF-alpha wells 100; activation, % at 7.58 µM; 260,000 compounds, 0.37% hits;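 active means mean E-selectin-positive cell signal at least 10% of the positive control, reached in at least 60% of replicates, without over 20% cell loss; inconclusive means no rule given, readout overlaps actives, possibly toxicity-flagged; inactive means the rest, including those meeting only one limit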
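Test system – human umbilical vein endothelial cells (HUVEC), E-selectin induction · Input – 3,000 HUVEC seeded per well · Buffer or medium – EGM-2, gelatin · Compound dosing – single-point compound dose · Detection – immunofluorescence imaging · Measure – percent E-selectin-positive cells · Controls – TNF-alpha high, DMSO low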
esBAF inh – inhibitors of esBAF chromatin remodeling in mouse ES cells; Bmi1-luciferase knock-in reporter, 24 h; 100% = twice the neutral-well signal; reporter increase, % at 12.5 µM; 350,000 compounds, 2% hits; AID 602393; in the data active means activation above about 40%; inconclusive means no clear call, values can overlap the other calls;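 further: 0% = median of the plate's neutral control wells and 100% = double that signal; a rise in the Bmi1 reporter signal indicates esBAF inhibition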
C2C12 statin – suppression of simvastatin myotoxicity | 330,000 compounds, 0.78% hits | rescue of ATP level, % at 7.49 µM | C2C12 myotubes + simvastatin, ATP luminescence, 48 h; scaled: DMSO 0, geranylgeraniol control 100;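 active means mean ATP rescue above about 67%, or every replicate alone reaching that limit, limit read from the data, passing the limit was not always enough; inconclusive means no clear call, values can overlap the other calls; inactive means mean under the limit and some replicate under it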;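 further: myotubes were challenged with 10 µM simvastatin during compound exposure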
PGC1a acetyl inh – lowers PGC1a acetylation signal in U2OS cells; 350,000 compounds, 0.17% hits; AlphaScreen anti-acetyl-lysine; with virally co-expressed GCN5 acetyltransferase; inhibition, % at 15.6 µM;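 active means every replicate shows inhibition of at least 40%; inconclusive means mean inhibition at least 40% but some replicate below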;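 further: 0% = neutral control wells and 100% = positive control wells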
PglD DTNB – blocks C. jejuni PglD acetyltransferase activity; purified PglD enzyme, DTNB colorimetric CoA detection; inhibition, % at 12.5 µM; 360,000 compounds, 0.098% hits; in the data active means inhibition above about 16%, passing the limit was not always enough; inconclusive means no clear call, values can overlap the other calls
Ring1 derepress – esBAF inhibition confirmed by Ring1 de-repression. shares compounds with esBAF inh. mouse ESC E14, Ring1 mRNA RT-qPCR fold change. fold change at 33 µM. 550 tested, under 10 active. AID 743176;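 active means Ring1 gene expression raised more than 2-fold over untreated cells in both replicates at either tested dose; inconclusive means only one replicate above 2-fold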;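 further: Ring1 transcript normalised to actin housekeeping signal by TaqMan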
esBAF Fgf4 qPCR – represses Fgf4 in mouse ESCs, confirming esBAF inhibition; shares compounds with esBAF inh; mouse ESC E14, Fgf4 mRNA qPCR fold change; hits give low values; Fgf4 expression fold change at 33 µM; 550 compounds, 4% hits;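 active means Fgf4 expression under 0.8 fold of control in both repeat measurements at one or both tested doses; inconclusive means under 0.8 fold in just a single repeat measurement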;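 further: Fgf4 transcript normalised to actin in duplex TaqMan qPCR; cells exposed to compound for 24 h before lysis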
Bmi1 derepress – esBAF inhibition confirmed by Bmi1 de-repression | 550 tested, under 10 active | mouse ESE14 ES cells, Bmi1 mRNA qPCR fold; hits give high values | shares compounds with esBAF inh | fold change at 33 µM;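 active means Bmi1 expression fold change above 6 at either tested concentration, seen in replicate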;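 further: higher fold means more Bmi1 de-repression and stronger esBAF inhibition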
A549 cytotox – kills or reduces viability of A549 cells. cell viability change % (negative = cytotoxic), % at 25 µM, hits read low. shares compounds with esBAF inh. 550 tested, under 10 active. AID 743188. A549 cytotoxicity, plate reader; call rule not given here
HepG2 tox SP – cytotoxicity in HepG2 cells | AID 743189 | activity change, negative = inhibition, % at 25 µM | 550 compounds, 4% hits | shares compounds with esBAF inh | plate reader; hits give low values; in the data active means activity change below about -50%
HEK293 tox SP – cytotoxicity in HEK293 cells; shares compounds with esBAF inh; plate reader; activity change, negative = inhibition, % at 25 µM, hits read low; 550 compounds, 3% hits; in the data active means activity change below about -38%, passing the limit was not always enough
Active calls of the source: *; u = inconclusive; x = no result given.

Every second line gives: Bmi1 derepress	UUG fidelity	HEK293 tox SP	HepG2 tox SP	esBAF Fgf4 qPCR	E-sel inducer	C2C12 statin	Ring1 derepress	PGC1a acetyl inh	A549 cytotox	PglD DTNB	esBAF inh
> COc1ccc(-c2nc(Cc3ccc(Cl)cc3)no2)cc1OC
    x	-9.5	x	x	x	x	x	x	-35.1	x	-0.7	x
> Clc1ccc(-c2nc(Cc3ccccc3)no2)cc1
    1.21	-10.3	-13.4	-12.6	0.932	x	-3.5	1.09	x	-15.8	5.7	69.7*
> O=C(Cn1c(/C=C/c2ccccc2)nc2ccccc21)Nc1ccc(F)cc1
    1.49	-7.0	3.0	29.8	0.997	6.8	-3.9	0.989	8.0	6.7	-1.8	80.0*
> COc1ccccc1C(=O)Nc1sc2c(c1C(N)=O)CCCC2
    x	-18.4	x	x	x	x	-31.2	x	-6.7	x	-0.9	29.0
> COc1ccccc1C(=O)Nc1sc2c(c1C#N)CCC2
    1.57	4.6	-10.0	-27.9	0.815	x	2.5	0.896	-0.1	1.1	0.7	58.9*
> O=C(Nc1nc2c(s1)CCc1ccccc1-2)c1cccs1
    2.25	-16.5	11.7	-5.2	u	x	-12.9	1.82	-26.2	-2.9	-6.7	71.4*
> O=C(Nc1nc2c(s1)COc1ccccc1-2)c1cccs1
    x	-20.1	x	x	x	-0.6	-8.3	x	-0.3	x	7.1	-2.6
> O=C(c1ccc(Cl)cc1)c1cnc(-c2ccc(Cl)cc2)s1
    1.25	-24.1	-0.2	-47.4	1.12	x	1.8	1.16	9.6	-9.5	6.5	62.9*
> O=C(c1ccccc1)c1cnc(-c2ccc(Cl)cc2)s1
    x	-17.8	x	x	x	x	-15.0	x	2.8	x	x	39.4
> COc1ccc(-c2cc3ccccc3s2)cc1[C@H]1[C@H]2C=CC[C@@H](C)[C@@H]2C(=O)N1Cc1ccccc1
    1.62	-2.4	-10.6	34.5	1.04	-0.1	-0.1	1.13	13.1	-4.9	2.7	50.2*
> COCC(=O)N1C[C@H](C)[C@H](OC)CN(C)C(=O)c2cc(NC(=O)c3cnccn3)ccc2OC[C@H]1C
    x	4.2	x	x	x	0.3	-8.8	x	4.5	x	1.3	-4.7
> Nc1ccccc1/C=C/c1ccccc1N
    1.77	-20.0	-7.2	24.4	0.994	0.9	-1.9	1.41	5.9	-4.0	-1.8	111.8*
> C[C@H]1CCCCO[C@@H](CN(C)S(=O)(=O)c2cccs2)[C@@H](C)CN([C@@H](C)CO)C(=O)c2cc(N(C)C)ccc2O1
    x	x	x	x	x	0.2	-21.5	x	-23.9	x	x	-6.2
> COc1ccc2c(c1OC)C(=O)N1c3ccccc3COC21 (stereo not drawn)
    x	-5.9	x	x	x	x	-10.1	x	4.2	x	-3.5	34.0
> COc1ccc2c(c1OC)C(=O)N1c3ccccc3SC21 (stereo not drawn)
    1.38	-3.5	-4.5	-23.7	0.978	x	-10.4	1.03	-1.7	9.0	-8.8	78.0*
> COc1cc(CN(C(=O)c2cc3ccccc3oc2=O)C2CCS(=O)(=O)C2)cc(OC)c1OC (stereo not drawn)
    x	-14.0	x	x	x	x	21.1	x	-1.5	x	-4.0	32.6
> O=C(c1cc2ccccc2oc1=O)N(Cc1cccs1)C1CCS(=O)(=O)C1 (stereo not drawn)
    1.26	-11.4	-12.8	-22.1	u	x	0.8	1.13	-9.7	-6.7	-8.2	70.1*
> CO[C@H]1CN(C)C(=O)c2cc(NC(=O)C3CC3)ccc2OC[C@H](C)N(C(=O)C2CCCCC2)C[C@@H]1C
    x	x	x	x	x	-0.3	x	x	-1.4	x	x	x
> COc1cccc(C(=O)Nc2ccc(Cl)c(C(F)(F)F)c2)c1
    1.91	-6.9	-6.1	-39.5	0.977	x	-5.7	0.971	-5.9	-1.6	1.8	68.2*
> COc1cc(C(=O)Nc2ccc(Cl)c(C(F)(F)F)c2)cc(OC)c1OC
    x	7.2	x	x	x	x	-6.8	x	x	x	2.4	2.1

Structures listed so far that contain a CF3 group:
Every second line gives: Bmi1 derepress	UUG fidelity	HEK293 tox SP	HepG2 tox SP	esBAF Fgf4 qPCR	E-sel inducer	C2C12 statin	Ring1 derepress	PGC1a acetyl inh	A549 cytotox	PglD DTNB	esBAF inh
> COc1cccc(C(=O)Nc2ccc(Cl)c(C(F)(F)F)c2)c1
    1.91	-6.9	-6.1	-39.5	0.977	x	-5.7	0.971	-5.9	-1.6	1.8	68.2*
> COc1cc(C(=O)Nc2ccc(Cl)c(C(F)(F)F)c2)cc(OC)c1OC
    x	7.2	x	x	x	x	-6.8	x	x	x	2.4	2.1

Continuation.
Every second line gives: Bmi1 derepress	UUG fidelity	HEK293 tox SP	HepG2 tox SP	esBAF Fgf4 qPCR	E-sel inducer	C2C12 statin	Ring1 derepress	PGC1a acetyl inh	A549 cytotox	PglD DTNB	esBAF inh
> C=CCOc1ccccc1/C=N/NC(=O)c1ccc(Cl)cc1Cl
    x	-15.1	x	x	x	x	1.4	x	9.4	x	2.4	-2.0
> COc1cc(C(=O)Oc2ccccc2/C=N/NC(=O)c2ccc(Cl)cc2Cl)cc(OC)c1OC
    8.35*	2.4	-4.8	8.9	0.997	x	24.4	1.05	6.5	-7.9	2.1	46.9*
> Cc1ccc(S(=O)(=O)Nc2ccc3c(c2)C(=O)N([C@@H](C)CO)C[C@@H](C)[C@@H](CN(C)C)OCCCC[C@@H](C)O3)cc1
    x	12.7	x	x	x	0.9	-1.1	x	-14.8	x	-3.0	-2.3
> COc1cc(OC)c2c(-c3ccccc3)cc(C3CCCCC3)nc2c1
    x	-4.9	x	x	x	x	-1.0	x	10.5	x	9.1	-10.3
> c1ccc2cc(C3CCCCC3)ncc2c1
    1.55	-15.0	12.5	-41.1	u	-0.1	2.0	1.33	x	1.6	1.9	76.3*
> CC=Cc1ccc2n(c1=O)C[C@@H]1[C@@H](CO)[C@H](C(=O)N[C@H](C)c3ccccc3)[C@H]2N1Cc1cccnc1 (mixture of isomers)
    x	x	x	x	x	-1.0	1.6	x	x	x	9.9	-9.4
> CCS(=O)(=O)N1CC(=O)N2[C@@H](CO)[C@H](c3ccc(C#CC4CCCCC4)cc3)[C@@H]2C1
    x	x	x	x	x	-0.1	x	x	-5.6	x	x	x
> CC(=O)Nc1ccc(CNc2nc3cc(-c4ccc(F)cc4)sc3c(=O)n2C)cc1
    2.37	-6.9	-26.7	8.9	1.01	-0.1	5.7	1.13	x	-1.5	6.5	67.8*
> CC(=O)Nc1ccc(CNc2nc3cc(-c4ccsc4)sc3c(=O)n2C)cc1
    1.68	x	-9.9	-13.8	1.09	0.0	9.0	1.58	0.9	7.4	3.5	78.4*
> O=C(C[C@@H]1C[C@H]2c3cc(NC(=O)C4CCC4)ccc3O[C@H]2[C@H](CO)O1)NCCN1CCCCC1
    x	-4.4	x	x	x	-0.6	2.9	x	5.9	x	-0.4	11.9
> O=C(Cc1ccncc1)NCC[C@@H]1CC[C@@H](NC(=O)C2CCOCC2)[C@H](CO)O1
    x	-8.6	x	x	x	-0.2	5.3	x	3.2	x	0.8	-5.2
> O=C1c2ccccc2C2N1CCCN2C(=O)c1sc2ccccc2c1Cl (stereo not drawn)
    1.79	-7.0	-24.9	-7.4	0.946	-0.1	9.9	0.998	-2.0	14.9	1.9	64.4*
> N#Cc1ccc(Nc2nc(-c3ccccc3)cs2)cc1
    2.41	-1.3	-9.1	-10.1	0.808	-0.7	-18.2	1.61	-10.2	7.2	0.3	73.6*
> O=C(O)c1ccc(Nc2nc(-c3ccccc3)cs2)cc1
    x	x	x	x	x	x	x	x	-0.5	x	x	x

One compound at a time, from the list above. Screens in order: Bmi1 derepress, UUG fidelity, HEK293 tox SP, HepG2 tox SP, esBAF Fgf4 qPCR, E-sel inducer, C2C12 statin, Ring1 derepress, PGC1a acetyl inh, A549 cytotox, PglD DTNB, esBAF inh
Listed for `O=C1c2ccccc2C2N1CCCN2C(=O)c1sc2ccccc2c1Cl` (stereo not drawn) : 1.79, -7.0, -24.9, -7.4, 0.946, -0.1, 9.9, 0.998, -2.0, 14.9, 1.9, 64.4*
Listed for `O=C(Cc1ccncc1)NCC[C@@H]1CC[C@@H](NC(=O)C2CCOCC2)[C@H](CO)O1` : x, -8.6, x, x, x, -0.2, 5.3, x, 3.2, x, 0.8, -5.2
